Measured properties of organic chemicals

Data: OPERA 2.9 data sets, kmansouri/OPERA on GitHub.

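The numbers are reported measurements, compiled and curated for the OPERA QSAR suite. The files give a single number for a compound and property, which may rest on several reports. Method, purity and exact conditions of the single measurements are not given. Where a salt, mixture or single isomer is drawn, the source does not say that exactly this form was tested. Unmarked limits or estimates from the upstream databases cannot be ruled out.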

Melting points are in °C. Boiling points are in °C, nominally at 760 mmHg. The octanol-water partition coefficient is given as log10; larger values mean a more lipophilic compound. Water solubility is log10 of mol/L, nominally at 25 °C; higher is more soluble. Vapor pressures (log10 mmHg) refer to near room temperature, 15 to 30 °C; higher is more volatile. fu is the fraction unbound in human plasma, from 0 to 1. Intrinsic clearance (human, µL/min per 10^6 hepatocytes): higher is faster turnover, and 0 stands for none detected. Cells with "n/a" have no entry in this list.

compound,name,mp (°C),bp (°C),log Kow,log S (log10 mol/L),vapor pressure (log10 mmHg),fraction unbound,intrinsic clearance (µL/min/10^6 cells)
O=c1c2cc(Cl)ccc2[nH]c2cc3c(=O)c4cc(Cl)ccc4[nH]c3cc12,"2,9-Dichloro-5,12-dihydroquino[2,3-b]acridine-7,14-dione",n/a,n/a,-0.11,-7.42,n/a,n/a,n/a
CC(=CCCC=O)CCCC(C)(C)O,"9-Hydroxy-5,9-dimethyl-4-decenal",n/a,268,n/a,n/a,-3.694,n/a,n/a
C=CCC(N)CC (stereo not given),Hex-5-en-3-amine,n/a,112,1.33,n/a,n/a,n/a,n/a
CC(CC(=O)O)n1nc2ccccc2n1 (stereo not given),3-(2H-Benzotriazol-2-yl)butanoic acid,82.5,n/a,0.34,n/a,n/a,n/a,n/a
CC[C@@H]([C@H](C)O)n1ncn(-c2ccc(N3CCN(c4ccc(OC[C@@H]5CO[C@@](Cn6cncn6)(c6ccc(F)cc6F)C5)cc4)CC3)cc2)c1=O,Posaconazole,n/a,n/a,5.5,n/a,n/a,0.02,n/a
O=C([O-])c1ccc2c3ccc4c5c(ccc(c6ccc(C(=O)[O-])c1c26)c53)C(=O)NC4=O.[K+].[K+],n/a,n/a,n/a,0.2,-2.572,n/a,n/a,n/a
CCCCOCCOCCOC(=O)CCCCC(=O)OCCOCCOCCCC,Bis[2-(2-butoxyethoxy)ethyl] adipate,n/a,n/a,3.24,-2.882,n/a,n/a,n/a
Oc1ccc2ccccc2c1N=Nc1ccccc1,C.I. Solvent Yellow 14,n/a,265,n/a,-5.561,n/a,n/a,n/a
CCCCC(CC)C(=O)OC (stereo not given),Methyl 2-ethylhexanoate,n/a,n/a,3.37,-2.99,0.5,n/a,n/a
COc1ccc(C(OC[C@H]2O[C@@H](n3cc(C)c(=O)[nH]c3=O)C[C@@H]2O)(c2ccccc2)c2ccc(OC)cc2)cc1,"Thymidine, 5'-O-[bis(4-methoxyphenyl)phenylmethyl]-",n/a,n/a,n/a,-5.259,-9.319,n/a,n/a
OC(CCN1CCCCC1)(c1ccccc1)C1CCCC1 (stereo not given),Cycrimine,n/a,n/a,4,-4.5,n/a,n/a,n/a
COc1cc(C)ccc1O,2-Methoxy-4-methylphenol,n/a,n/a,1.2,-1.82,-1.62,n/a,n/a
Clc1cccc(Cl)c1-c1ccccc1,"2,6-Dichlorobiphenyl",35,n/a,n/a,n/a,-2.585,n/a,n/a
CCCCCCCC,Octane,n/a,n/a,n/a,n/a,n/a,0.1031,0.6933
O=C1OC(c2ccc(O)cc2)(c2ccc(O)cc2)c2ccccc21,Phenolphthalein,n/a,n/a,n/a,n/a,n/a,0.03116,47.4
CC(C)CCCCCCCOC(=O)C=CC(=O)OCCCCCCCC(C)C,Bis(8-methylnonyl) but-2-enedioate,-87,n/a,n/a,-6.422,n/a,n/a,n/a
CCCC1CCC(C2CCC(c3ccc(OC)c(F)c3F)CC2)CC1 (stereo not given),n/a,87.7,n/a,n/a,-7.202,-7.256,n/a,n/a
CCCCC(F)(F)[C@@]1(O)CC[C@H]2[C@@H](CC(=O)[C@@H]2CCCCCCC(=O)O)O1,Lubiprostone,n/a,n/a,4.3,-4.183,n/a,n/a,n/a
CCC(C)(C)c1cc(O)c(C(C)(C)CC)cc1O,"2,5-Bis(2-methylbutan-2-yl)benzene-1,4-diol",n/a,n/a,3.3,n/a,-6.247,n/a,n/a
CC(C)CN(C[C@@H](O)[C@H](Cc1ccccc1)NC(=O)O[C@@H]1CCOC1)S(=O)(=O)c1ccc(N)cc1,Amprenavir,n/a,n/a,n/a,-4.057,n/a,0.1,n/a
CCN(CC)CC(C)O (stereo not given),"2-Propanol, 1-(diethylamino)-",n/a,n/a,1.25,n/a,0.672,n/a,n/a
Clc1ccccc1NNc1ccccc1Cl,"1,2-Bis(2-chlorophenyl)hydrazine",87,n/a,5.1,n/a,n/a,n/a,n/a
CCCCCCCCCCCCCCCCCCCCCCOC(=O)c1ccc(O)cc1,Docosyl 4-hydroxybenzoate,78,407,n/a,-8.048,-6.085,n/a,n/a
CCCCCCCC/C=C/CCCCCCCC(=O)O.CCCCCCCC/C=C/CCCCCCCC(=O)O.CCCCCCCC/C=C/CCCCCCCCNCCCN,n/a,-9,n/a,0.03,-8.25,-4.949,n/a,n/a
Brc1cc(Br)c(Oc2ccccc2)c(Br)c1,"2,4,6-Tribromodiphenyl ether",85.5,n/a,n/a,n/a,-4.465,n/a,n/a
CCOc1ccccc1NC(=O)C(=O)Nc1ccc(CCCCCCCCCC(C)C)cc1,n/a,n/a,365.9,4.4,-6.099,-5.94,n/a,n/a
C=CCCCC=CCOC,"1-Methoxy-2,7-octadiene",n/a,173,2.98,-2.615,0.033,n/a,n/a
Nc1nc(CC(=O)O)cs1,2-Amino-4-thiazoleacetic acid,n/a,n/a,-2.13,-2.09,n/a,n/a,n/a
CCC(C)OC(C)CC (stereo not given),Bis(2-butyl) ether,n/a,n/a,3.11,-2.598,n/a,n/a,n/a
CC(C)CCC1CCC(O)CC1 (stereo not given),"Cyclohexanol, 4-(3-methylbutyl)-",n/a,243.5,4.49,-3.226,-3.491,n/a,n/a

The last 2 entries again:

{"smiles": "CCC(C)OC(C)CC", "stereo": "stereo not given", "name": "Bis(2-butyl) ether", "log Kow": "3.11", "log S (log10 mol/L)": "-2.598"}
{"smiles": "CC(C)CCC1CCC(O)CC1", "stereo": "stereo not given", "name": "Cyclohexanol, 4-(3-methylbutyl)-", "bp (°C)": "243.5", "log Kow": "4.49", "log S (log10 mol/L)": "-3.226", "vapor pressure (log10 mmHg)": "-3.491"}